Data as given in patent US20210161999A1, “COMPOSITIONS AND METHODS RELATED TO OVERCOMING INNATE IMMUNE BARRIERS TO CANCER IMMUNOTHERAPY” (Health Research, Inc., priority 2018, published 2021).
Entries after “also recorded” stand apart in the source; their conditions may differ.

Assays:
TCR-CTL = experiment: Coculture of engineered NY-ESO-1 TCR-CTL with PMN and ascites supernatants; CTL proliferation by [3H] thymidine incorporation; assay type: cell-based, human; conditions: rIL-2 (100 IU) added at 48 h
Description: FIG. 7. PMN suppressor phenotype inhibits engineered effector T cell activation but not antigen-specific cytotoxicity. Engineered CTL expressing NYESO1-specific TCR (TCR-CTL) are candidates for adoptive cell therapy in EOC. TCR-CTL and PMN were used in coculture at 1:1. PMN and/or ascites supernatants (ASC; 50% final well volume) were added to anti-CD3/CD28-stimulated TCR-CTL. After 72 h of coculture (A) or after rIL-2 (100 IU) addition at 48 h (B), CTL proliferation was measured by [^3H] thymidine incorporation (16-18 h) (n=3). A) ASC and MD-ASC rendered PMN suppressive to TCR-CTL, while PK-ASC had no effect. […] C) IFN-gamma expression was reduced with PMN and/or ASC or PK-ASC, as measured by flow cytometry after 72 h of coculture (n=2). Symbols represent individual samples (n) and bars represent SEM. Statistical comparisons were by ANOVA with Tukey post-test (*, p<0.05; **, p<0.01; ***, p<0.001; ns, not significant).
Freshly isolated T cells (1e5) were stimulated with anti-CD3/CD28 Dynabeads (2.5 μl; Thermo Fisher Scientific) and cocultured with autologous PMN (1:1) and ascites supernatants (50% final well volume) in an incubator at 37° C., 5% CO2. […] Cells were harvested onto a Filtermat and counted on a Beta counter. Results are expressed as net cpm [calculated by subtracting the average cpm of unstimulated T cells from the average cpm of stimulated T cells]. […]

[1] = system: PMN suppressor phenotype (suppression of anti-CD3/CD28-stimulated T cell proliferation); experiment: Coculture of PMN with ascites supernatants and anti-CD3/CD28-stimulated T cells; T cell proliferation by [3H] thymidine incorporation; assay type: cell-based, human; conditions: primary T cells; rIL-2 (100 IU) added at 48 h, assessed at 72 h
Description: Freshly isolated T cells (1e5) were stimulated with anti-CD3/CD28 Dynabeads (2.5 μl; Thermo Fisher Scientific) and cocultured with autologous PMN (1:1) and ascites supernatants (50% final well volume) in an incubator at 37° C., 5% CO2. After 72 h, [^3H] thymidine (1 μCi per well) was added and allowed to incorporate for 16-18 h. Cells were harvested onto a Filtermat and counted on a Beta counter. Results are expressed as net cpm [calculated by subtracting the average cpm of unstimulated T cells from the average cpm of stimulated T cells].
Where indicated, T cells, PMN, and ascites supernatants underwent various pretreatments. Where indicated, T cells were pretreated for lh with neutralizing antibody against ICAM-I (1-10 μg), IgG1 isotype (1-10 μg), or media (RPMI 1640, 5-10% heat-inactivated FBS, HEPES, sodium pyruvate, non-essential amino acids, and penicillin-streptomycin). […]

rIL-2: recombinant IL-2
effect on suppression of TCR-CTL proliferation (TCR-CTL): reversed suppression; also recorded: completely restored proliferation | rescue of T cell proliferation (reversal of T cell suppression) [1]: did not rescue T cell proliferation; also recorded: did not reverse T cell suppression
